{
  "source": "PubChem BioAssay AID485275",
  "about": "(NMMLSC, 2010)",
  "note": "The entries are a selection whose mix differs from that of the whole data set. The source made the active and inactive calls.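 Rule for the calls: active = plate passing quality check with inhibition over a set limit, or well fluorescence over plate mean plus 4 SD; inactive = the rest.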",
  "data": [
    {"assay": "antifungal drug efflux pump blockers, triplex strains – S. cerevisiae, Nile Red, multiplex, primary screen (AID 485275);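 note: Nile Red retained in pooled yeast measured as flow cytometry median fluorescence; 0% = buffer negative control and 100% = Enniatin B positive control; higher means more Nile Red kept so more efflux inhibition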", "details": "S. cerevisiae Candida pump triplex, at 10 µM, hits give high values", "values": [
      {"smiles": "CCC(=O)N(c1ccccc1)C1(COC)CCN(CCc2cccs2)CC1", "inhibition": "inactive: 0.48%"},
      {"smiles": "CCC(=O)N(c1ccccc1)C1(COC)CCN(CCn2nnn(CC)c2=O)CC1", "inhibition": "inactive: 0.09%"}
    ]}
  ]
}
